Molecular target: T1, purified catalytic domain of recombinant human TACE (rhTACEc) (Homo sapiens, UniProt P78536, N452Q/S266A)
T1 construct: rhTACEc, Residue 215 to 477 with two mutation (S266A and N4520) and a 6×His tail; 6xHis (C); made in house; host or cells: baculovirus/Hi5 insect cells
Experiment: TACE kinetic assay, cleavage of internally quenched fluorescent peptide substrate SPDL-3
Format: biochemical
Conditions: rhTACEc 70 pM, 30 μM SPDL-3, 90 min pre-incubation at 25° C.; read-out: Ki (nM), TACE inhibitory activity

Protein sequences, listed by entry. Tags and fused reporters are not part of them. Residues count along the entry.
UniProt P78536, 215-477 S266A/N452Q limits assumed: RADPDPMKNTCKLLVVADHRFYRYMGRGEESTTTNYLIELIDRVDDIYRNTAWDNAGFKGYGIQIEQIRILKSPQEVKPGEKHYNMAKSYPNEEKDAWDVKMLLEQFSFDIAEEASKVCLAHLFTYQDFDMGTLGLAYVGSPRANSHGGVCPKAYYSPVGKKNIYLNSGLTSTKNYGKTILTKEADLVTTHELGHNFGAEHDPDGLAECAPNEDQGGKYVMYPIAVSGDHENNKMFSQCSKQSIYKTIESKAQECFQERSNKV

COc1ccc2c(c1)C(=O)N(C[C@@]1(C#Cc3ccc4c(c3)CCC43NC(=O)NC3=O)NC(=O)NC1=O)C2 (stereo partly shown) [Compound 1576]
Ki: 0.27 nM

— patent US7772263B2, “Compounds for the treatment of inflammatory disorders” (Schering Corporation, priority 2006, dated 2010)
